Measured values as given in ChEMBL document CHEMBL1147048, “Identification of anti-prion compounds as efficient inhibitors of polyglutamine protein aggregation in a zebrafish model” (J Biol Chem, 2007).
Active and inactive are the calls of the source. The calls are words filed in the database; no cut-off is given here.

Experiment: Inhibition of aggregation of HA-HttE*1Q53 mutant expressed in zebrafish embryo at 3 and 30 uM by filter trap assay

| SMILES | Activity |
| --- | --- |
| COc1cc(/C=N/N=C(N)N)ccc1OCc1c(C)c(C)c(Br)c(C)c1C.Cl | Active |
| O=C(N/N=C/c1ccc2ccccc2c1)c1ccc(O)c(O)c1 | Active |
| O=C(N/N=C/c1ccc2ccccc2c1)c1cccc(Cl)c1 | Active |
